According to US20060252677A1 (published 2006):

Target: T1, fusion protein of Protein-X (novel PSD, clone hj02537) with a 6x His-tag (human, UniProt Q5T2T1 1-576)
T1 construct: Used as crude soluble E. coli extract (1% Triton X extraction buffer) in the Overlay assay; fusion band approx. 65.8 kDa; also called 6x His-tag fusion protein of the novel PSD; pDEST17/hj02537 #11 product; not shown: N-terminal 6x His-tag and linker encoded by vector pDEST17
T1 sequence: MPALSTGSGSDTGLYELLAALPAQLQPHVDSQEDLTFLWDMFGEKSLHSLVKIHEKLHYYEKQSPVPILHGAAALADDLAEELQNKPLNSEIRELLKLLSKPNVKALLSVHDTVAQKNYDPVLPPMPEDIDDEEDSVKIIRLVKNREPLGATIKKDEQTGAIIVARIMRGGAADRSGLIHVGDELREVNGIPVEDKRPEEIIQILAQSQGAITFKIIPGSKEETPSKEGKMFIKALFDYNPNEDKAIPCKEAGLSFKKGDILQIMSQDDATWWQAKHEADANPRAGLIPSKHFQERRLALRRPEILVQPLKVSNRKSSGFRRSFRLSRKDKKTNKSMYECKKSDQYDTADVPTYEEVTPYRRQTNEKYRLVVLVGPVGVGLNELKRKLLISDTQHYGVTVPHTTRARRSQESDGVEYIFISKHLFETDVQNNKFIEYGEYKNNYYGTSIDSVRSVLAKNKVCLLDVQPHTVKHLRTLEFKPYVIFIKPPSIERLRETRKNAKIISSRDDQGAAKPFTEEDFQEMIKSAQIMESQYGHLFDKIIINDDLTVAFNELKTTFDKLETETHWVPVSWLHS
Assay: Overlay method on blotted GST, detection with anti-His antibody
Description: Subsequently, 3 ml of 1 mM PMSF/TBS-T was added to 20 μl of sample containing Protein-X, prepared as described above and 40 μl of extraction buffer, or to 60 μl of sample containing the Protein-X mutant prepared as described above, to make a mixture. As a control, a mixture obtained by adding 3 ml of 1 mM PMSF/TBS-T to 60 μl of extraction buffer was used. Each mixture was used and allowed to react with each of the transfer membranes for 2 hours at 4° C. to bind thereto. Thereafter, a 5-minute wash with TBS-T was performed three times at room temperature, and the membranes were blocked again with 5% skim milk/TBS-T for 1 hour at room temperature. After blocking, a mouse anti-His antibody (Amersham Pharmacia Biotech) was diluted 1000-fold with 5% skim milk/TBS-T and added; and this composition was allowed to react for 1 hour at room temperature. After the reaction, the transfer membranes were washed using TBS-T for 10 minutes at room temperature; the wash was performed three times; then a secondary antibody (anti-mouse IgG antibody-HRP) (Cell Signaling) was diluted 3000-fold with 5% skim milk/TBS-T, then added and allowed to react for 1 hour at room temperature. After that, a 10-minute wash with TBS-T was performed three times at room temperature. Thereafter, a signal was detected using the ECL kit and Hyper film.

- binding result: no binding
B1: GST (glutathione S-transferase) expressed alone from pGEX-4T-3 (other, UniProt P08515 1-218, looked up)
chain: MSPILGYWKIKGLVQPTRLLLEYLEEKYEEHLYERDEGDKWRNKKFELGLEFPNLPYYIDGDVKLTQSMAIIRYIADKHNMLGGCPKERAEISMLEGAVLDIRYGVSRIAYSKDFETLKVDFLSKLPEMLKMFEDRLCHKTYLNGDHVTHPDFMLYDALDVVLYMDPMCLDAFPKLVCFKKRIEAIPQIDKYLKSSKYIAWPLQGWQATFGGGDHPPK
notes: Negative control on the blot in the Overlay assay
